One assay concerns the target Dipeptidyl peptidase 8 (Homo sapiens, UniProt Q6V1X1). Put plainly: Inhibition of DPP8.
For a further assay, the target named is Dipeptidyl peptidase 9 (Homo sapiens, UniProt Q86TI2). The assay can be described thus: Inhibition of DPP9.
The target of a further assay is Dipeptidyl peptidase 4 (Homo sapiens, UniProt P27487). Put plainly: Inhibition of human recombinant DPP4.
The target of another assay is T1, Prolyl endopeptidase FAP (Homo sapiens, UniProt Q12884).
T1 sequence (Q12884 whole entry): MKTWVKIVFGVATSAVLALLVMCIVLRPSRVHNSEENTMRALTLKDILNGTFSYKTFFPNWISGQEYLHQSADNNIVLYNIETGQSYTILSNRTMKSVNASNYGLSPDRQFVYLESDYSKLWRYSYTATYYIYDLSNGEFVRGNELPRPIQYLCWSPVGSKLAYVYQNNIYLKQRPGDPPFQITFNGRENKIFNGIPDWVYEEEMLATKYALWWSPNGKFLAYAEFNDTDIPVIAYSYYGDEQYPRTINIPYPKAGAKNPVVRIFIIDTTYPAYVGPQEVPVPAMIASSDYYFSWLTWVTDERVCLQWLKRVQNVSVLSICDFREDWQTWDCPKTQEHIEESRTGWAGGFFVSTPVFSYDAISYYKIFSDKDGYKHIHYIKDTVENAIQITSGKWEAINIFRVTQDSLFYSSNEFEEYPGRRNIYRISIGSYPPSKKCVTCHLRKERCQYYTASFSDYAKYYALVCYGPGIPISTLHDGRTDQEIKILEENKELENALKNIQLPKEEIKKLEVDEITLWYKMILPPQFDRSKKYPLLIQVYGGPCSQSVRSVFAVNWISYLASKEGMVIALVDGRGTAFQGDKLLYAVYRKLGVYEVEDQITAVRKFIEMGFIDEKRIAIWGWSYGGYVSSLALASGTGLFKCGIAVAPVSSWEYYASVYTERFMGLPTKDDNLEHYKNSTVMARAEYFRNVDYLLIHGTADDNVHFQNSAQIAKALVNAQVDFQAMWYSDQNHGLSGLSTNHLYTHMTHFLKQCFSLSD
Put plainly: Inhibition of FAP.

Chains of the proteins cited; added tags and fusions are not shown. Lines headed by an entry give the natural chain unless they say otherwise; changes in a name come on top.
UniProt Q6V1X1: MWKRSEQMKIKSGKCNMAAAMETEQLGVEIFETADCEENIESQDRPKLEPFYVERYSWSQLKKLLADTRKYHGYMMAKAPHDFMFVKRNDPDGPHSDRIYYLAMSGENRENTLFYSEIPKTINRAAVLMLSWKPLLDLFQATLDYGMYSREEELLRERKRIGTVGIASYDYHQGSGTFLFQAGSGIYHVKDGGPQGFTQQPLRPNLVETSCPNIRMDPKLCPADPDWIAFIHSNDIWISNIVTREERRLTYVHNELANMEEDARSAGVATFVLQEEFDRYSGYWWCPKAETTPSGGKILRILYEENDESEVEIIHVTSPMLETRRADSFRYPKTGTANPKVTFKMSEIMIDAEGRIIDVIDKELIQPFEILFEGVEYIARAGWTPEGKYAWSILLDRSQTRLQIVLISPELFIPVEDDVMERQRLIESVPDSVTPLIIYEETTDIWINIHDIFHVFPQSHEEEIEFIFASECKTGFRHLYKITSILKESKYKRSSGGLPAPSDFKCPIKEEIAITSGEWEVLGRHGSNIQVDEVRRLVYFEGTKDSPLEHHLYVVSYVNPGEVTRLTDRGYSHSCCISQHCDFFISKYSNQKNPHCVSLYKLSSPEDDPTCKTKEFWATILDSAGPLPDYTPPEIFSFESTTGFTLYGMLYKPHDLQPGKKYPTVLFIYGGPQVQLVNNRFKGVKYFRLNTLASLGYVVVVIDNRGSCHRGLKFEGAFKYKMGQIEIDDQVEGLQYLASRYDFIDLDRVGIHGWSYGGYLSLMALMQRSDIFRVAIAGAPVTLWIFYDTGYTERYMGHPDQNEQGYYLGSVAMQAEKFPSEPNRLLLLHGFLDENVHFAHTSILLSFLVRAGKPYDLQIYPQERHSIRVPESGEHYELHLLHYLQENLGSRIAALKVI
UniProt Q86TI2: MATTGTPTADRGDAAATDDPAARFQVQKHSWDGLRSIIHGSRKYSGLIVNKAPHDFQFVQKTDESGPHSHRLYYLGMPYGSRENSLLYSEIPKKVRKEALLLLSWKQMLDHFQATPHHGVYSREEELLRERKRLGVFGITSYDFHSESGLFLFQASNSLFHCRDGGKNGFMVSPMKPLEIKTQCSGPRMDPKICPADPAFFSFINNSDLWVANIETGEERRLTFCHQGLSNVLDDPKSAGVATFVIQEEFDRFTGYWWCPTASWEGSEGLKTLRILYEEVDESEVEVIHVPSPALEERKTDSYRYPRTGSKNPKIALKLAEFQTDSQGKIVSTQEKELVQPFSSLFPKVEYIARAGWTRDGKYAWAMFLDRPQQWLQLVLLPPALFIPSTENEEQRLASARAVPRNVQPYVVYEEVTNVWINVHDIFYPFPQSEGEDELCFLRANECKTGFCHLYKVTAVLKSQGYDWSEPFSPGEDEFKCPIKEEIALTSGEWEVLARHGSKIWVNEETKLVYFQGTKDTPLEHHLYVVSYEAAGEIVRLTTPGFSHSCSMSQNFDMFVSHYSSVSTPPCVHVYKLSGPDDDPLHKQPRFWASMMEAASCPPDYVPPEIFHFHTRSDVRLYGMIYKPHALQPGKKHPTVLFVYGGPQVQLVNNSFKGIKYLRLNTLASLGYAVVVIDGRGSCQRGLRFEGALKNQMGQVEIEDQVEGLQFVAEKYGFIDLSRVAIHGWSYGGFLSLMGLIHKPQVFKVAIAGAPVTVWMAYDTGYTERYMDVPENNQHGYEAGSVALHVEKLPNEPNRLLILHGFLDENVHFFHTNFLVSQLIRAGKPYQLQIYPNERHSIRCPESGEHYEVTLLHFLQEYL
UniProt P27487, whole entry: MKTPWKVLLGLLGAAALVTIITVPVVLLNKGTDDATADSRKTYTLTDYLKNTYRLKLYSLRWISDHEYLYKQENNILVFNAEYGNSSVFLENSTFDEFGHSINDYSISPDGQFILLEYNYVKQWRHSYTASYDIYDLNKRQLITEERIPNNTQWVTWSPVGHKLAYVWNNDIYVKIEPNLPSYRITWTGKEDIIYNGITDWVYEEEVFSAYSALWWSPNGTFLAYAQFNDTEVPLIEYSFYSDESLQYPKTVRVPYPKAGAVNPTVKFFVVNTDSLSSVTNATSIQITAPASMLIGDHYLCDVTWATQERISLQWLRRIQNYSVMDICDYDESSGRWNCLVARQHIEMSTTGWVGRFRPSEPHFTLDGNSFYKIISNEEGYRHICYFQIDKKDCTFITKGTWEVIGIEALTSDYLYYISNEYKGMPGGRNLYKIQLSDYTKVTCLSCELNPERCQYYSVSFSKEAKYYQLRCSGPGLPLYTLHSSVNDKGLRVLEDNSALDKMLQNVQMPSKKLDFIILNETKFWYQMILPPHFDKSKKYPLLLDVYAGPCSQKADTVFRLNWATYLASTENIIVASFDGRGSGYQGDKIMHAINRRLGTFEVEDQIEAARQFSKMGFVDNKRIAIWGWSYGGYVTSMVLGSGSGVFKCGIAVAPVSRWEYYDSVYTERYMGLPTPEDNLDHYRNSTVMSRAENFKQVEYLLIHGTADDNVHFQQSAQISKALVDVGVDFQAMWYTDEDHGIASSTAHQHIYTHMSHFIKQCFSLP
UniProt Q9NQW7: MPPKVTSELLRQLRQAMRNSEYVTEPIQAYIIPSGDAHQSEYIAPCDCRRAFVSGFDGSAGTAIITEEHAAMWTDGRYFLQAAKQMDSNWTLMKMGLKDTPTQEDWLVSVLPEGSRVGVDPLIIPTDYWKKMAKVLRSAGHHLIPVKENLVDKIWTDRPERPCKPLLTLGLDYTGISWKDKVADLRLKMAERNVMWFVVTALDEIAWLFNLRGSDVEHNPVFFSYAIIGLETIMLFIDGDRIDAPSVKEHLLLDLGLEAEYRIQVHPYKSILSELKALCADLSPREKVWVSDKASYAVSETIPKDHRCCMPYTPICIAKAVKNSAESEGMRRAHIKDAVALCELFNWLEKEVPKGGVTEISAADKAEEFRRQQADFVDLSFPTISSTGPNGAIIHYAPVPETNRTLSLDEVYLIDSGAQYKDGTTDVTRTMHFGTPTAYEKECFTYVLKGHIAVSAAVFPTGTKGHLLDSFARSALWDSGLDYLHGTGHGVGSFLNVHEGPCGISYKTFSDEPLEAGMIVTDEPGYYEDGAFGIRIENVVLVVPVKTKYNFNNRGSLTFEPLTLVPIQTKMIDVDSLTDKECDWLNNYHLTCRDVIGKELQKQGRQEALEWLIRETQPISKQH

The next assay deals with Xaa-Pro aminopeptidase 1 (Homo sapiens, UniProt Q9NQW7). The assay can be described thus: Inhibition of APP.

Each structure is given as a SMILES string. pIC50: −log10 of the molar value. Bounds are passed on as bounds.

The values below come from ChEMBL document CHEMBL1147795, “cis-2,5-dicyanopyrrolidine inhibitors of dipeptidyl peptidase IV: synthesis and in vitro, in vivo, and X-ray crystallographic characterization” (J Med Chem, 2006).

Turning to `N#C[C@@H]1CC[C@H](C#N)N1C(=O)CNC12CC3CC(CC(C3)C1)C2`, the negative-log IC50 (pIC50) (in general, the IC50 on a negative log10 scale, so that one unit is a factor of ten) on Dipeptidyl peptidase 8 is less than 4.52; at Dipeptidyl peptidase 9, less than 4.52; at Dipeptidyl peptidase 4, 6.97. At Dipeptidyl peptidase 8, `CCOCC1(NCC(=O)N2[C@H](C#N)CC[C@@H]2C#N)CCCC1` had a negative-log IC50 (pIC50) of less than 4.52. With `CCCCOCC1(NCC(=O)N2[C@H](C#N)CC[C@@H]2C#N)CCCC1`, the pIC50 at Prolyl endopeptidase FAP and at Xaa-Pro aminopeptidase 1 was less than 4.52 throughout. On to `N#C[C@H]1CC[C@H](C#N)N1C(=O)CNC12CC3CC(CC(C3)C1)C2`, for which the negative-log IC50 (pIC50) on Dipeptidyl peptidase 4 was less than 4.52. In the case of `N#C[C@@H]1CC[C@H](C#N)N1C(=O)CNC1(CO)CCCC1`, the pIC50 at Dipeptidyl peptidase 8 and against Dipeptidyl peptidase 9 was less than 4.52 throughout. Compound `N#C[C@@H]1CC[C@H](C#N)N1C(=O)CNC12CC3CC(CC1C3)C2` gave a pIC50 on Prolyl endopeptidase FAP of less than 4.52.
